# Entries after “also recorded” stand apart in the source; their conditions may differ.
# Columns and labels:
# [1] = system: phosphorylation of AKT (Serina 473) and S6 (240-244); assay: Immunoblotting of AKT and S6 phosphorylation in JIMT-1 tumour masses; format: in vivo, athymic nude mice; details: JIMT-1 tumours collected 4 hours after third and last dose of MEN1611
# Description: (§1) FIG. 2: the antitumour activity of MEN1611 is supported even by its pharmacodynamic activity, by means of the assay of immunoblotting, wherein the phosphorylation of two proteins AKT and S6, proteins downstream of PI3K, was evaluated. […] The analysed tumour masses were collected 4 hours after the third and last dose of MEN1611.
# Moreover, the activity of MEN1611 was even evaluated by means of its capability of inhibiting phosphorylation of two proteins downstream of the cascade of PI3K, AKT (Serina 473) signal and the S6 (240-244) factor, in the tumour masses of mice belonging to each group, collected after 4 hours of the third dose and last dose of MEN1611.
# The samples were analysed by immunoblotting with antibodies directed against phospohylated akt (pS473-Akt), total Akt, phosphorylation of S6 (240/244), and total S6 (FIG. 2).
# [2] = system: phosphorylation of AKT and S6; assay: Immunoblotting of AKT and S6 phosphorylation in HCC1954 tumour masses; format: in vivo, athymic nude mice; details: HCC1954 tumours collected 4 hours after third and last dose of MEN1611
# Description: as §1, with “4: The” for “2: the”
# The samples were analysed by immunoblotting with antibodies directed against phosporylated akt (pS473-Akt), total Akt, phosphorylation S6 (240/244), and total S6.
substance,measurement,setting,value
trastuzumab: monoclonal antibody directed against the HER2 receptor [reference compound],phosphorylation of AKT and S6 in tumour masses (immunoblotting),[1],not inhibited; also recorded: did not change
same,phosphorylation of AKT and S6 in tumour masses (immunoblotting),[2],not inhibited
